Apparent affinities of Ab-14 variants for a coronavirus HR2 peptide

Reference: Li et al. 2023, doi:10.1038/s41467-023-39022-2. File: FLAb, binding data.

Target peptide (SARS-CoV-2 spike, HR2 region): PDVDLGDISGINAS

Parent: Ab-14, a human scFv built as VH, three GGGGS repeats, VL. Only the CDRs of the light chain vary.
VH: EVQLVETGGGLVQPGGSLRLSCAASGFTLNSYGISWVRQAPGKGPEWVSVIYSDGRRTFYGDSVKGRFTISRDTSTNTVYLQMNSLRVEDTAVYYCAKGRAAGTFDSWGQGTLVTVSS
VL: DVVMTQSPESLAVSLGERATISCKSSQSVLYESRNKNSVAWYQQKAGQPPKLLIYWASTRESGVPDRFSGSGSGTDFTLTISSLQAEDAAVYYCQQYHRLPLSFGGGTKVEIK

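The starting antibody came from a phage panning campaign against this peptide. This is the validation round: designs drawn from the data on random variants, tested in the same kind of assay. Several design methods are mixed in this list. Affinity was read by AlphaSeq, a pooled yeast mating assay with surface-displayed partners. Pairs that bind mate more often; barcode pairs of the diploids are counted by sequencing. Each replicate has its own calibration line, from reference interactions of the BCL2 family. There are six technical replicates.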

Variants are written as CDR1, CDR2 and CDR3 of the light chain (limits as in the source). Parent: KSSQSVLYESRNKNSVA, WASTRES, QQYHRLPLS. Variants here have more than six changes. Each Kd is an estimate from the mating assay, the geometric mean of the replicates in which the pair was seen; lower is stronger. "not detected" means that the variant was in the library but no mating with the target was seen in any replicate; the authors take this as a sign of poor binding, and no number exists. Entries are sorted by rising average, undetected variants last. The range of this assay differs from that of the first round, and the authors advise against merging the two. In the paper, a design with two or fewer of six values counts as a poor binder. Three control strains display no target. For all light chain designs, 4% of the pairings with them gave a signal, with a median of 430 nM and one signal in twenty below 38 nM, so weak values seen in few replicates may be background. For each scFv, signals with the empty controls are counted beside the result. Of ten entries with the parent sequence, four were seen in most replicates (averages 2.2 nM to 240 nM), three in one and three in none, so single entries are noisy.

| CDR-L1 | CDR-L2 | CDR-L3 | Kd (apparent) | replicates with signal | control signals |
|---|---|---|---|---|---|
| KFKPSFLYWSRNSNAVA | EASTREE | QQYHRLPLS | 760 pM | 6 of 6 | 1 of 18 |
| KLSPSVMYESRMKNSVA | MASTRYT | QQYHRLPLS | 960 pM | 6 of 6 | 0 of 18 |
| TLGGAMLTQMHNKNSVA | DLTTRLN | QQYHRLPLS | 1.1 nM | 6 of 6 | 0 of 18 |
| KLYFSEEYESRNKNSVA | SAHQRES | QQYHRLPLS | 1.1 nM | 6 of 6 | 1 of 18 |
| KISSMVRVGSTHKNSIA | EEATRAD | QQYHRLPLA | 1.4 nM | 6 of 6 | 2 of 18 |
| KLYSITGTEKVHGNNVA | EMETREE | QQYNRLPLS | 1.4 nM | 6 of 6 | 1 of 18 |
| KWSFGVMGESRNKNSVA | DASTRES | QQYERLPLS | 1.4 nM | 6 of 6 | 0 of 18 |
| KIYAATMLESHDKNSIA | DLSTRGN | QQYHRLPLS | 1.6 nM | 6 of 6 | 0 of 18 |
| KLSQSVKYEDRNWNNVA | AASKRES | QAYHRLPLS | 1.9 nM | 6 of 6 | 0 of 18 |
| NISQMFHMETKNVNNVA | QTSTRES | QDYHRLPLS | 2.1 nM | 6 of 6 | 1 of 18 |
| NFSQMVLTGSTLKNSVA | QASTREE | QQYHRLPLI | 2.2 nM | 6 of 6 | 0 of 18 |
| TLGYQPTEMRDNKHAVA | DDEARTR | QQYMRLPLS | 2.4 nM | 6 of 6 | 1 of 18 |
| HLQDWGIYHMENMDSIA | EREKLEM | QQYFRLPLS | 2.4 nM | 6 of 6 | 0 of 18 |
| KMLQNVMTEGRNRNNVA | HMDMRED | QQYWRLPLS | 2.4 nM | 6 of 6 | 0 of 18 |
| QMKASLLQGIYRQDSVA | SSDIRAL | QQYHHLPLS | 2.8 nM | 6 of 6 | 1 of 18 |
| MISDLTYYGLRNVNSVA | DLSTRGN | QQYDRLPLS | 3.5 nM | 6 of 6 | 1 of 18 |
| TISQSWFIEQRNKNNVA | EMTTREN | QDYDRLPLS | 4.1 nM | 5 of 6 | 0 of 18 |
| HFQIGMNQGSSMEHNIA | EGTYAEE | QQYARLPLQ | 4.3 nM | 6 of 6 | 0 of 18 |
| KFSGSQLYESRNSNSVA | HGSTRES | QDYHRLPLS | 4.9 nM | 6 of 6 | 0 of 18 |
| KLWAYTQGLFRNMQNIA | DGIYRVT | QQYGRLPLS | 5.1 nM | 6 of 6 | 2 of 18 |
| ALRGVGCDEQVKHSAIA | DAEHANQ | QQYSMLPLS | 5.4 nM | 6 of 6 | 0 of 18 |
| SFHEINFEGLAQTANVA | NASYLFE | QQYFRLPLT | 5.6 nM | 6 of 6 | 2 of 18 |
| MVNGIMDHLSKQTNNVA | ETTTRNS | QQYDRLPLT | 5.6 nM | 6 of 6 | 0 of 18 |
| KLQNSFLYESRQKNNVA | EASQREM | QQYHRLPLS | 7.4 nM | 6 of 6 | 1 of 18 |
| MISQLMNMGQFAINSVA | QASIRNH | QQYDRLPLA | 7.4 nM | 6 of 6 | 0 of 18 |
| SLFEKEREELSVEQNIA | DGTEHMD | QQYFRLPLL | 7.8 nM | 6 of 6 | 0 of 18 |
| HVHMEMAIWKEILNNIA | DAQNRAA | QQYFRLPLG | 8.3 nM | 6 of 6 | 3 of 18 |
| HITYGMMVHGRHSSSIA | QAETRAK | QQYDRLPLI | 14 nM | 6 of 6 | 0 of 18 |
| KQSISGPYEDRNFNSVA | HASQRIS | QQYHRLPLS | 14 nM | 6 of 6 | 2 of 18 |
| MISNVMNTLTRQGNNVA | DLQNREN | QQYFRLPLS | 14 nM | 1 of 6 | 0 of 18 |
| KISSLTMYESVAKNNIA | EMTTRPE | QSYHRLPLS | 15 nM | 6 of 6 | 2 of 18 |
| TVSQVHGMLSHEKNSVA | DMNTRGS | QQYDRLPLS | 15 nM | 6 of 6 | 3 of 18 |
| KISYMGEHFSTNHSAIA | QASTREL | QQYHRLPIS | 15 nM | 6 of 6 | 0 of 18 |
| KLQQWHLYESRMKNSVA | HASERES | QCYHRLPLS | 16 nM | 6 of 6 | 0 of 18 |
| MISQLYNMGQFAINSVA | QASLRND | QQYDRLPLM | 19 nM | 6 of 6 | 1 of 18 |
| KLMQSTHIESFNKNNVA | EMTTRES | QSYDRLPLS | 21 nM | 6 of 6 | 2 of 18 |
| HISQSVGMTSFHKNSVA | ENSTRED | QQYDRLPLS | 23 nM | 6 of 6 | 2 of 18 |
| KLQQSVLMGSRNKNSVA | EASTRRV | QAYHRLPLS | 25 nM | 6 of 6 | 0 of 18 |
| MISQLWNMGTFAINSVA | QAEIRNA | QQYDRLPLA | 28 nM | 3 of 6 | 0 of 18 |
| MISDLMMYGSRAKNPIA | NASTREY | QQYHRLPLE | 28 nM | 6 of 6 | 0 of 18 |
| MLSEFMHMLGAKKNSIA | DLVVRAN | QQYHRLPLS | 30 nM | 6 of 6 | 2 of 18 |
| KLGSSTRFESSNKASIA | DNSTREA | QQYHRLPLS | 33 nM | 4 of 6 | 0 of 18 |
| MISQVMNTLTRNGNNVA | DLQEREQ | QQYFRLPLS | 33 nM | 6 of 6 | 1 of 18 |
| KIDQQTSYDNGRERAIA | DVTIRDW | QQYARLPLL | 48 nM | 4 of 6 | 0 of 18 |
| KISYQYRFEQLSKNNIA | EVVTRLK | QQYHRLPLS | 49 nM | 6 of 6 | 1 of 18 |
| MLSEMLHMLGTKKNSIA | DLVLRAN | QQYHRLPLS | 50 nM | 4 of 6 | 0 of 18 |
| KLQISVEYESRNQNSVA | SASYRLD | QQYHRLPLS | 51 nM | 2 of 6 | 0 of 18 |
| TLGAATLEESRNKNSVA | EMSLREP | QSYNRLPLS | 55 nM | 6 of 6 | 0 of 18 |
| KSEDGVDDLERNDNSVA | WASTRES | QQYHRLPLS | 65 nM | 6 of 6 | 1 of 18 |
| KISYMGEHFSSNHSAIA | QASTREQ | QQYHRLPIS | 66 nM | 6 of 6 | 0 of 18 |
| MISQLMNLGQFAINSVA | QASIRNI | QQYDRLPLA | 71 nM | 6 of 6 | 1 of 18 |
| QLDHQLQYDDANKQAVA | EMTEVTT | QQYHRLPLE | 79 nM | 6 of 6 | 1 of 18 |
| KQSFSGGGGSRNKNSVA | KASTRES | QQYHRLPLS | 100 nM | 6 of 6 | 2 of 18 |
| QFTQNIFYGQRDDNSIA | HADELVK | QQYDRFPLA | 160 nM | 4 of 6 | 0 of 18 |
| MFSQLMEYGSRYVNSVA | QASTRED | QQYHWLPLS | 200 nM | 5 of 6 | 0 of 18 |
| MLSQMTGLGQKVRNSVA | QASMRIN | QQYHRLPLI | 300 nM | 4 of 6 | 1 of 18 |
| TIGAQLMYGTRNRSNVA | EVSERLN | QQYDRLPLL | not detected | 0 of 6 | 1 of 18 |
| QIAMQMYHGLNDNQNIA | DAMTYIK | QQYSRLPLF | not detected | 0 of 6 | 0 of 18 |
| KISQMVWYESTWWNAIA | QTSTREE | QQYHRLPLS | not detected | 0 of 6 | 0 of 18 |
| KITFQMMSSNAHDYSIA | QTNVYSD | QQYGRLPLD | not detected | 0 of 6 | 0 of 18 |

Excerpt, the first 4 entries:

| CDR-L1 | CDR-L2 | CDR-L3 | Kd (apparent) | replicates with signal | control signals |
|---|---|---|---|---|---|
| KFKPSFLYWSRNSNAVA | EASTREE | QQYHRLPLS | 760 pM | 6 of 6 | 1 of 18 |
| KLSPSVMYESRMKNSVA | MASTRYT | QQYHRLPLS | 960 pM | 6 of 6 | 0 of 18 |
| TLGGAMLTQMHNKNSVA | DLTTRLN | QQYHRLPLS | 1.1 nM | 6 of 6 | 0 of 18 |
| KLYFSEEYESRNKNSVA | SAHQRES | QQYHRLPLS | 1.1 nM | 6 of 6 | 1 of 18 |